By UniProt entry, the sequences of proteins in these tests, tags left out.
UniProt P0DMS8, whole entry: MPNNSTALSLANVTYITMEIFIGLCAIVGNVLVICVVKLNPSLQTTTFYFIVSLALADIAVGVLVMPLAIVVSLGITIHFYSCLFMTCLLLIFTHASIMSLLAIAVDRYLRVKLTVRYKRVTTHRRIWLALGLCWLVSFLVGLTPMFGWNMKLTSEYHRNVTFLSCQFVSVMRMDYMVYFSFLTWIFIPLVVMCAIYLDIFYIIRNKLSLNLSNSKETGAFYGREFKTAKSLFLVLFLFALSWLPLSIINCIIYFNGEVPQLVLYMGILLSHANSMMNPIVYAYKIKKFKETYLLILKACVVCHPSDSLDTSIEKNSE

According to ChEMBL document CHEMBL3797168 (J Med Chem, 2016):

Biological target: Adenosine receptor A3 (Homo sapiens, UniProt P0DMS8)
Test: Displacement of [125I]N6-(4-amino-3-iodobenzyl)adenosine-5'-N-methyl-uronamide from human adenosine A3 receptor expressed in CHO cell membranes incubated for 60 mins by liquid scintillation counting analysis

Ki: 343 nM
SMILES: CNC(=O)[C@@]12C[C@@H]1[C@@H](n1cnc3c(C)nc(C#Cc4cnccn4)nc31)[C@H](O)[C@@H]2O
